Measurements published in patent US20110230476A1 (published 2011).

Amino acid sequences for entries named in this document (tags omitted). A change or cut given only in a name is not applied to a line headed by its entry.
UniProt P42338: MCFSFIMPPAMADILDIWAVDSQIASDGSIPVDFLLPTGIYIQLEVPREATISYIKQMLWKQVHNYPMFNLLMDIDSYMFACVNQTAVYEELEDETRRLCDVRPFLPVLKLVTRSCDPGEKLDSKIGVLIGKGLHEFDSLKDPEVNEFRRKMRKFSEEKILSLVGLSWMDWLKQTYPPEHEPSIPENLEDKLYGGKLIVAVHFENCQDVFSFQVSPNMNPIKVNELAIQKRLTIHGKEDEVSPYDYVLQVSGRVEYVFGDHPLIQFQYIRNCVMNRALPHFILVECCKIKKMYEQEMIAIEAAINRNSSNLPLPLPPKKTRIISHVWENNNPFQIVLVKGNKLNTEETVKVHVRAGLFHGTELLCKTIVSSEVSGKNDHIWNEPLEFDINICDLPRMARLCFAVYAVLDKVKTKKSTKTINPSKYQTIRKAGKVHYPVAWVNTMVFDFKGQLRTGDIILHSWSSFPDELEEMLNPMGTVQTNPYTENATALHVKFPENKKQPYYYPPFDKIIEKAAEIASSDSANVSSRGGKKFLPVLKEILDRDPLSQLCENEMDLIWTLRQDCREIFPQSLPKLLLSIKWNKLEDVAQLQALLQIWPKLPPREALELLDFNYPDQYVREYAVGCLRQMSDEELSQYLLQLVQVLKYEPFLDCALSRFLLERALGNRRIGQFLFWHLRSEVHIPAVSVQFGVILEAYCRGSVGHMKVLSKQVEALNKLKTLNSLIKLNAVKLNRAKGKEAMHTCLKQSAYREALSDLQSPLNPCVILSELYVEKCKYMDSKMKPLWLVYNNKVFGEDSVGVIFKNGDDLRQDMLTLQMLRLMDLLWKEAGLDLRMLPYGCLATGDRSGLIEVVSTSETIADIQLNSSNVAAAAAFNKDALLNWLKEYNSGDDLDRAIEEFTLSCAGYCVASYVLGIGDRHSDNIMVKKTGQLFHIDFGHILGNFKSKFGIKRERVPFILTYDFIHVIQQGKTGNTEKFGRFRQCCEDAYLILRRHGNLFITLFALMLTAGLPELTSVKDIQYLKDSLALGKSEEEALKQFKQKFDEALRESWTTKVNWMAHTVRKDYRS

Legend:
PI3Kβ (p110β/p85α) [1] = molecular target: T1, PI3Kβ (p110β/p85α) (Homo sapiens, UniProt P42338); conditions: read-out: published IC50; p110β/p85α enzyme; cited from earlier work
PI3Kβ (p110β/p85α) [2] = molecular target: T1, PI3Kβ (p110β/p85α); test: HTRF assay, potency against active PI3Kβ; format: biochemical

O=c1cc(N2CCOCC2)oc2c(-c3ccccc3)cccc12 [LY294002, reference compound]
IC50 (PI3Kβ (p110β/p85α) [1]): > 1000 nM | IC50 (PI3Kβ (p110β/p85α) [2]): > 1000 nM

Where two headings read alike, the source gives them in different places.
